Among the data in PubChem BioAssay AID2380 (Sanford-Burnham Center for Chemical Genomics, 2010) are proliferation values, retold here.

The entries are a selection whose mix differs from that of the whole data set. Active and inactive are the calls of the source.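 How the source made its calls: active means compounds whose signal lies at least 3.5 SD above the mean of all wells on their plate; inactive means the rest.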

The assay can be described thus: small molecules increasing insulinoma cell replication – ATP luminescence, uHTS, primary screen (AID 2380).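 Further: 0% = DMSO-treated cells in low-serum medium and 100% = 10% serum control.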 The settings on record: MIN6 cells proliferation, ATPlite luminescence, 48 h; at 10 µM; active compounds read high; 100% = growth in 10% serum; cells starved in 0.2% serum. For orientation: In ATP-based viability assays light output follows the ATP content of the culture.
For `CN(C(=O)Cc1ccc(Cl)c(Cl)c1)[C@H]1CCCC[C@H]1N1CCCC1`, the proliferation is inactive: -1.4%.
Consider `Cc1ccc(N/C(=N/P(=O)(N2CCOCC2)N2CCOCC2)N2CCOCC2)cc1`, for which the proliferation was inactive: -0.81%.
For the compound `NC(=O)c1cc([N+](=O)[O-])cc([N+](=O)[O-])c1N`, the proliferation was inactive: -1.21%.
With `Clc1ccc(Cl)c(NC2=NCC(CBr)S2)c1` (stereo not given), the proliferation was inactive: -0.07%.
As for `CN1CCCC(OC(=O)C(c2ccccc2)c2ccccc2)C1` (stereo not given), the proliferation was inactive: -2.19%.
For `COc1ccccc1OP(=O)(Nc1ccc(C)cn1)Oc1ccccc1OC`, the proliferation was inactive: -1.36%.
The result for `Cc1ccc(OP(=O)(Nc2nccs2)Oc2ccc(C)cc2)cc1` reads inactive: 2.27%; that for `Oc1ccccc1CNc1ccccn1`, inactive: -2.2%; that for `Cc1c2non([O-])c-2c(C)[n+](=O)[n+]1[O-]`, inactive: -5.77%.
With `O=C(NC(Sc1ccncn1)C(Cl)(Cl)Cl)c1ccccc1` (stereo not given), the proliferation was inactive: -0.73%.
Turning to `CC(C)CC(=O)NC(Sc1ccc(Cl)cc1)C(Cl)(Cl)Cl` (stereo not given), the proliferation is inactive: -4.41%.
As to `Nc1cc(N)c2nonc2c1[N+](=O)[O-]`, the proliferation was inactive: -1.14%.
Consider `O=P(Nc1nc2ccc(Cl)cc2s1)(c1ccccc1)c1ccccc1`, for which the proliferation is inactive: -5.94%.
With `O=C(O)c1ccccc1[As](=O)(O)O`, the proliferation was inactive: -0.34%.
On to `CC(=O)Nc1ccc([As](=O)(O)O)cc1`, for which the proliferation is inactive: 2.27%.
For `CCOP(=O)(Nc1ccccc1)OCC` the value was inactive: -2.13%; for `Cc1cc(SC(NC(=O)c2ccc(F)cc2)C(Cl)(Cl)Cl)ncn1` (stereo not given), inactive: -1.41%; for `CN(C(=O)Cc1ccc(Cl)c(Cl)c1)[C@H]1CCCC[C@@H]1N1CCCC1`, inactive: 1.17%.
`Cc1ccc(NP(=O)(Oc2ccccc2F)Oc2ccccc2F)nc1`: the proliferation is inactive: -1.66%.
Regarding `O=[N+]([O-])c1cc([N+](=O)[O-])c(CCN2CCOCC2)c([N+](=O)[O-])c1`, the proliferation was inactive: -6.4%.
Turning to `CCN(N=Nc1nonc1N)c1nonc1N`, the proliferation is inactive: -1.84%.
On to `O=C(Nc1cc([As](=O)(O)O)ccc1O)c1ccccc1`, for which the proliferation was inactive: -5.17%.
`O=[N+]([O-])c1ncn(CCn2ncnc2[N+](=O)[O-])n1`: the proliferation was inactive: 2.76%.
The result for `CC(C)(C)C(=O)NC(Sc1ccncn1)C(Cl)(Cl)Cl` (stereo not given) reads inactive: -5.14%; that for `O=[N+]([O-])c1cccc(NC2=NCC(CBr)S2)c1` (stereo not given), inactive: -2.27%.
The result for `COc1ccc(C2=NCC(CBr)S2)cc1` (stereo not given) reads inactive: -4.52%; that for `Cc1ccc(NP(=O)(Oc2ccccc2)Oc2ccccc2)nc1`, inactive: -0.03%.
For `O=[N+]([O-])c1cc([N+](=O)[O-])c(CCNc2ccccc2)c([N+](=O)[O-])c1` the value was inactive: -7.07%.
On to `CCc1nc2c(n1)c1c(non1O)c1c2no[n+]1[O-]`, for which the proliferation was inactive: -5.85%.
Turning to `CC(=O)N1C2C3N(C(C)=O)C1C1N(C(C)=O)C(C(N1C(C)=O)N3C(C)=O)N2C(C)=O`, the proliferation was inactive: -0.16%.
The result for `O=[N+]([O-])c1cccc2n[nH]nc12` reads inactive: 0.08%; that for `CCN(/C(=N/P(=O)(N1CCOCC1)N1CCOCC1)N1CCOCC1)c1ccc(OC)cc1`, inactive: -0.6%.
In the case of `Nc1ccc([As](=O)(O)c2ccc(N)cc2)cc1`, the proliferation is inactive: -2.62%.
Turning to `C[N+]1=C2C=CC=CC=C2SC12C([N+](=O)[O-])=CC([N+](=O)[O-])=C[C-]2[N+](=O)[O-]` (stereo not given), the proliferation is inactive: -6.33%.
For `CC1CCN(C(=O)Oc2c(Cl)cc(Cl)c3cccnc23)CC1` the value was inactive: -1.8%; for `CC(C)=N/N=C(\N)N[N+](=O)[O-]`, inactive: -0.25%.
Turning to `CN(C)C(=O)OCCc1n(C)cc[n+]1C`, the proliferation was inactive: -0.95%.
As to `O=P(Nc1nccs1)(c1ccccc1)c1ccccc1`, the proliferation was inactive: 2.72%.
The result for `CC(C)C(=O)NC(Sc1ccccc1)C(Cl)(Cl)Cl` (stereo not given) reads inactive: 0%; that for `c1nnnn1CCn1cnnn1`, inactive: 0.32%.
As for `CN(C)C1(CNC(=O)c2ccc(Cl)c(S(N)(=O)=O)c2)CCCCC1`, the proliferation is inactive: -2.02%.
The result for `O=P(Nc1ccccn1)(c1ccc(Br)cc1)c1ccc(Br)cc1` reads inactive: -0.72%; that for `O=P(Nc1nc2ccccc2s1)(c1ccccc1)c1ccccc1`, inactive: -0.19%; that for `O=[As](O)(c1ccccc1)c1ccc(O)cc1`, inactive: -3.68%.
For `O=[N+]([O-])c1ncn(CCn2cnc([N+](=O)[O-])n2)n1` the value was inactive: -2.15%; for `O=C(OC1CN2CCC1CC2)c1cccc(Cl)c1` (stereo not given), inactive: -1.81%.
Turning to `Nc1ccc([As](=O)(O)c2ccc([N+](=O)[O-])cc2)cc1`, the proliferation is inactive: -1.48%.
For `C(Cc1nn[nH]n1)Cc1nn[nH]n1` the value was inactive: 1.68%; for `c1ccc(-c2nn[nH]n2)c(-c2nn[nH]n2)c1`, inactive: -2.72%; for `CCOC(=O)NC(Sc1ccccc1)C(Cl)(Cl)Cl` (stereo not given), inactive: -5.01%.
Turning to `Cc1ccc(NP(=O)(Oc2cccc(C)c2)Oc2cccc(C)c2)nc1`, the proliferation was inactive: -0.79%.
Consider `O=C(NC1CCS(=O)(=O)C1)NP(=S)(Oc1ccccc1)Oc1ccccc1` (stereo not given), for which the proliferation is inactive: 0.46%.
Consider `CCNC(=S)/N=C(\N)N[N+](=O)[O-]`, for which the proliferation is inactive: 1.95%.
For `O=C(OC1CN2CCC1CC2)c1ccccc1` (stereo not given), the proliferation was inactive: -2.88%.
Regarding `CCC(=O)N1C2C3N(C(=O)CC)C1C1N(C(=O)CC)C(C(N1C(=O)CC)N3C(=O)CC)N2C(=O)CC`, the proliferation was inactive: -2.02%.
On to `COC(=O)c1cc2c(s1)N=C(c1ccccc1)N(C)P2(=O)N1CCOCC1` (stereo not given), for which the proliferation was inactive: -0.37%.
Turning to `Cc1ccc(OP(=O)(Nc2ccccn2)Oc2ccc(C)cc2)cc1`, the proliferation is inactive: 0.02%.
The result for `CC(=O)NC(SC(=S)N(CC(C)C)CC(C)C)C(Cl)(Cl)Cl` (stereo not given) reads inactive: 0%; that for `Cc1ccccc1OP(=O)(Nc1ccccn1)Oc1ccccc1C`, inactive: 0.85%.
For `CC(NC(=O)COC(=O)C(O)(c1ccccc1)c1ccccc1)c1ccccc1` (stereo not given) the value was inactive: -4.3%; for `CN(C)C(=O)Oc1noc2ccccc12`, inactive: 0.36%.
Consider `O=P1(Nc2nc3ccc(Cl)cc3s2)COc2ccccc2O1` (stereo not given), for which the proliferation was inactive: 0.29%.
Consider `CCOc1ccc(C2=NCC(CBr)S2)cc1` (stereo not given), for which the proliferation was inactive: -5.07%.
As for `CC(C)(C)C(=O)NC(Sc1ccccc1)C(Cl)(Cl)Cl` (stereo not given), the proliferation was inactive: -2.28%.
On to `Cc1ccccc1CN(C)C(=O)COC(=O)C(O)(c1ccccc1)c1ccccc1`, for which the proliferation is inactive: -5.89%.
